Data as given in patent US11091495B2, “Substituted imidazo[1,2-c]pyrimidines as PRC2 inhibitors” (Mirati Therapeutics, Inc., priority 2018, dated 2021).

Sequences of proteins named here, by UniProt entry; tags and fusion partners are left off.
UniProt O75530, whole entry, looked up: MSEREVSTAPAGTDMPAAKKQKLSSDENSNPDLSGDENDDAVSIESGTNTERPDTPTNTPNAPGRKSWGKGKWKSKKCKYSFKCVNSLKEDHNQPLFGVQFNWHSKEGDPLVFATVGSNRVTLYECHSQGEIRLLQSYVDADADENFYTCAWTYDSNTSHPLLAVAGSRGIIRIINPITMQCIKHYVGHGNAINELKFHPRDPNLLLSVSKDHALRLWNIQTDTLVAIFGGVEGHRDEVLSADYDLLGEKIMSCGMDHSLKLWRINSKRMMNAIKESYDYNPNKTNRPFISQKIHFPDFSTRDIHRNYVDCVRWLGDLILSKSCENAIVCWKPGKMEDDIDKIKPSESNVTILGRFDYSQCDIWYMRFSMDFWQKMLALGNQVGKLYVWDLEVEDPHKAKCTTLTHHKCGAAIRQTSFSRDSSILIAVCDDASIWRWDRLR

Target: purified human, His-tagged PRC2 complex (Homo sapiens (Human), UniProt O75530)
Test: Hot Spot HMT assay of PRC2 enzymatic activity
Format: biochemical
Settings: read-out: IC50, Inhibition of PRC2-mediated Enzymatic Activity; 10 nM PRC2 complex, core histone H3, 1 uM 3H-SAM, 1 hr at 30° C

IC50: > 500 nM
SMILES: Cc1cc(-c2cnc(NCc3cccc4c3CCCO4)n3cc(C#N)nc23)n(C)n1
